# Where “and” joins values, the source holds several entries; their conditions need not be identical. Equal entries are not always repeated. The entries are a selection whose mix differs from that of the whole data set. Calls of active or inactive are those of the source. Calls come from the whole dose curve; as a rule, active = well fitted inhibition curve with a large enough effect; inconclusive = small, poorly fitted or top-dose-only effect; inactive = flat fitted curve, though single readings scatter.
# The chains behind the UniProt entries cited, without tags or fusion partners. Where a name states a change or a piece, a line headed by the entry shows the natural chain unless it says otherwise.
# UniProt P54132: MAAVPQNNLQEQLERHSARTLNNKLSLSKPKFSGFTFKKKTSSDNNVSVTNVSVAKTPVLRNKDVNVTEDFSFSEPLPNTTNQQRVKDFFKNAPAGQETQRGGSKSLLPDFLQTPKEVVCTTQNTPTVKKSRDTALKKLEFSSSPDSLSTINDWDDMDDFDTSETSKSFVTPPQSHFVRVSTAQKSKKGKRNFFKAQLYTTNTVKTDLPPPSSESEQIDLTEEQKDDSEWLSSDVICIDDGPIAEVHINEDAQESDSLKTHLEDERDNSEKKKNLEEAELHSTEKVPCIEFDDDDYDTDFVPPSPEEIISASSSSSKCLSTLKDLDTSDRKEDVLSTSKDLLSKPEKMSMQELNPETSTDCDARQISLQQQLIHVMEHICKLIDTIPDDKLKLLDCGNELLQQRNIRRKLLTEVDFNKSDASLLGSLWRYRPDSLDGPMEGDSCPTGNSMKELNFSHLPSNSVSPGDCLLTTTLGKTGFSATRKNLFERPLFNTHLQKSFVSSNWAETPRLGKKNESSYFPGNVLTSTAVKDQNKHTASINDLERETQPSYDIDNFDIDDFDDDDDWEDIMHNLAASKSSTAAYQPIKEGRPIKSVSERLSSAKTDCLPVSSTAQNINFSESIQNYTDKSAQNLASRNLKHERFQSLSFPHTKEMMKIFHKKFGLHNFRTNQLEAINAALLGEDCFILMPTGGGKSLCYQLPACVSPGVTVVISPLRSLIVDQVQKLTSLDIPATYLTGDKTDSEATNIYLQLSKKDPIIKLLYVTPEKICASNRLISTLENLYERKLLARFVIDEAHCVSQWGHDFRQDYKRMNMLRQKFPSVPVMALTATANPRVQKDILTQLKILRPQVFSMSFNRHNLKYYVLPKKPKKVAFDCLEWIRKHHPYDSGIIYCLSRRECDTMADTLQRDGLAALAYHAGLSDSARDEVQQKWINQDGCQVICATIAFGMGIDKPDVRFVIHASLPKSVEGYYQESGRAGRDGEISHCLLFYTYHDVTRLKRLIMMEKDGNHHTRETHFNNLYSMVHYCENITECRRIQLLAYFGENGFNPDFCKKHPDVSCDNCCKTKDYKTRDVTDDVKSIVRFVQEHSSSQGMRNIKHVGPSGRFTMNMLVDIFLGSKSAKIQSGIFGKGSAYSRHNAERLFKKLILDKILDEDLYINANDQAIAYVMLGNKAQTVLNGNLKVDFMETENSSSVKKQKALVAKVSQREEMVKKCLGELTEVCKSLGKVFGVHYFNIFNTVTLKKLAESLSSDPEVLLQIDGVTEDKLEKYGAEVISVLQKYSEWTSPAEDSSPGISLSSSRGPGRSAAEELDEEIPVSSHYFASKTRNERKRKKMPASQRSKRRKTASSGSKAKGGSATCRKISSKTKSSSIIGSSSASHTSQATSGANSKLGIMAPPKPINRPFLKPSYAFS
# Target: RecQ-like DNA helicase BLM (Homo sapiens) (UniProt P54132)
# Test: qHTS Assay for Inhibitors of Bloom's syndrome helicase (BLM);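 note: plate controls were vehicle for no effect and no enzyme for full effect; nearly all actives have a fitted effect of over 35% in size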
# Conditions: recombinant BLM DNA unwinding, fluorescence dequenching
# [1] = at 56.1 µM (top of the series) unless noted
structure (smiles),measurement,setting,value
C(Cc1nn[nH]n1)Cc1nn[nH]n1,"activity change, negative = inhibition",[1],inactive: 1.17%
Nc1ccc([As](=O)(O)c2ccc([N+](=O)[O-])cc2)cc1,"activity change, negative = inhibition",[1],inactive: -7.36%
O=C(OC1CN2CCC1CC2)c1cccc(Cl)c1 (centres undefined),"activity change, negative = inhibition",[1],inactive: 0.791%
O=[N+]([O-])c1ncn(CCn2cnc([N+](=O)[O-])n2)n1,"activity change, negative = inhibition",[1],inactive: -7.01%
CC(=O)NC(SC(=S)N(C)C)C(Cl)(Cl)Cl (centres undefined),"activity change, negative = inhibition",[1],inactive: -7.89%
O=[N+]([O-])c1ccc(O)c(/C=N/Nc2ccc([N+](=O)[O-])cc2[N+](=O)[O-])c1,"activity change, negative = inhibition",[1],inactive: -9.15%
O=[As](O)(c1ccccc1)c1ccc(O)cc1,"activity change, negative = inhibition",[1],inactive: -2.69%
CCC(C)(OOC(C)(C)C)OOC(C)(C)C,"activity change, negative = inhibition",[1],inactive: 2.78%
c1nnnn1CCn1cnnn1,"activity change, negative = inhibition",[1],inactive: -0.125%
O=P(Nc1nccs1)(c1ccccc1)c1ccccc1,"activity change, negative = inhibition",[1],inactive: -1.23%
CC(C)C(=O)NC(Sc1ccccc1)C(Cl)(Cl)Cl (centres undefined),"activity change, negative = inhibition",[1],inactive: 3.12%
Clc1n[nH]nc1-c1nn[nH][15n]1,"activity change, negative = inhibition",[1],inactive: 1.88%
CC(C)(C)C(=O)NC(Sc1ncccn1)C(Cl)(Cl)Cl (centres undefined),"activity change, negative = inhibition",[1],inactive: -0.197%
CCOP(=O)(Nc1ccc(C)cn1)OCC,"activity change, negative = inhibition",[1],inactive: -1.13%
CCC1=CC2Cc3nc4ccc(Cl)cc4c(N)c3C(C1)C2 (centres undefined),"activity change, negative = inhibition",[1],inactive: 6.01%
O=P1(Nc2ccccn2)COc2ccccc2OC1,"activity change, negative = inhibition",[1],inactive: -1.15%
CCOP(=O)(NC(=NC(C)c1ccccc1)NC(C)c1ccccc1)OCC (centres undefined),"activity change, negative = inhibition",[1],inactive: -4.42%
O=[As](O)(c1ccccc1Br)c1ccccc1Br,"activity change, negative = inhibition",[1],inactive: -5.46%
CN(C(=O)Cc1ccc(Cl)c(Cl)c1)[C@@H]1CCCC[C@H]1N1CCCC1,"activity change, negative = inhibition",[1],inactive: -6.65%
CC(C)/C=N\N=C(\N)N[N+](=O)[O-],"activity change, negative = inhibition",[1],inactive: -3.88%
O=C(/C=C/c1ccccc1)OC1CN2CCC1CC2 (centres undefined),"activity change, negative = inhibition",[1],inactive: 12%
CN(C)C1(CNC(=O)c2ccc(S(C)(=O)=O)cc2)CCCCC1,"activity change, negative = inhibition",[1],inactive: 0.606%
Cc1nn(-c2ccccc2)c2c1P(=O)(N1CCOCC1)N(C)C(c1ccccc1)=N2 (centres undefined),"activity change, negative = inhibition",[1],inactive: -6.32%
Cc1ccc(C(=O)OC2CN3CCC2CC3)cc1 (centres undefined),"activity change, negative = inhibition",[1],inactive: 2.1%
CC1CCC(C(C)C)C(OP(=O)(Nc2ccccn2)c2ccccc2)C1 (centres undefined),"activity change, negative = inhibition",[1],inactive: -10.3%
O=[As](O)(c1cccs1)c1cccs1,"activity change, negative = inhibition",[1],inactive: -6.65%
Cc1ccc(OCC(=O)OC2CN3CCC2CC3)cc1 (centres undefined),"activity change, negative = inhibition",[1],inactive: 0.482%
O=P1(Nc2ccc(Br)cn2)COc2ccccc2OC1,"activity change, negative = inhibition",[1],inactive: 1.31%
Nc1cccc([As](=O)(O)c2ccccc2)c1,"activity change, negative = inhibition",[1],inactive: -2.13%
O=P1(Nc2ncccn2)COc2ccccc2OC1,"activity change, negative = inhibition",[1],inactive: 1.56%
O=C(O)COc1ccc([As](=O)(O)O)cc1[N+](=O)[O-],"activity change, negative = inhibition",[1],inactive: -0.0636%
Nc1ccccc1[As](=O)(O)c1ccccc1,"activity change, negative = inhibition",[1],inactive: -2.14%
CS(=O)(=O)c1cc([N+](=O)[O-])c2no[n+]([O-])c2c1,"activity change, negative = inhibition",[1],inactive: -3.11%
CCOP1(=S)c2c(C)nn(CCC#N)c2N=C(c2ccccc2F)N1C (centres undefined),"activity change, negative = inhibition",[1],inactive: -4.5%
O=P(Nc1nccs1)(Oc1ccccc1)Oc1ccccc1,"activity change, negative = inhibition",[1],inactive: -14.2%
O=P(Nc1nccs1)(c1ccccc1)c1nc2ccccc2s1 (centres undefined),"activity change, negative = inhibition",[1],inactive: 1.01%
O=[N+]([O-])c1ccc2c(c1)nnn2O,"activity change, negative = inhibition",[1],inactive: -4.11%
CCOP1(=S)c2c(C)nn(CCC#N)c2N=C(c2ccc(F)cc2)N1C (centres undefined),"activity change, negative = inhibition",[1],inactive: -2.65%
NC(=O)Nc1ccc([As](=O)(O)O)cc1,"activity change, negative = inhibition",at 21.4 µM (top of the series),inactive: 3.24%
same,"activity change, negative = inhibition",at 56.1 µM (top of the series),inactive: -10.5% and inactive: -0.466%
O=[N+]([O-])CC(O)c1ccc([N+](=O)[O-])cc1 (centres undefined),"activity change, negative = inhibition",[1],inactive: 5.74%
Cc1cccc(OCC(=O)OC2CN3CCC2CC3)c1 (centres undefined),"activity change, negative = inhibition",[1],inactive: 3.85%
O=[As](O)(c1cccc(O)c1)c1cccc(O)c1,"activity change, negative = inhibition",[1],inactive: -2.29%
O=[As](O)(O)c1cccnc1,"activity change, negative = inhibition",[1],inactive: 0.311%
COc1cc(C(=O)NCC2(N3CCOCC3)CCCCC2)cc(Cl)c1OC(C)C,"activity change, negative = inhibition",[1],inactive: -4.27%
CS(=O)(=O)c1ccc(Cl)c(NC(=O)COC(=O)C(O)(c2ccccc2)c2ccccc2)c1,"activity change, negative = inhibition",[1],inactive: -5.62%
O=C(OC1CN2CCC1CC2)c1ccc(Cl)cc1 (centres undefined),"activity change, negative = inhibition",[1],inactive: -1.69%
COc1cc(C2NCCC3(OCCO3)C2(C)C)cc(OC)c1OC (centres undefined),"activity change, negative = inhibition",[1],inactive: 1.22%
CCOP(=O)(Nc1cccc2ccccc12)OCC,"activity change, negative = inhibition",[1],inactive: 0.553%
CCCOP(=S)(Nc1nc(N)cc(=O)[nH]1)OCCC,"activity change, negative = inhibition",[1],inactive: -6.27%
Cc1ccc(NCCc2c([N+](=O)[O-])cc([N+](=O)[O-])cc2[N+](=O)[O-])cc1,"activity change, negative = inhibition",[1],inactive: -12%
COc1ccc2nc(NP(=O)(c3ccccc3)c3ccccc3)sc2c1,"activity change, negative = inhibition",[1],inactive: -3.34%
COc1cc(I)ccc1[As](=O)(O)O,"activity change, negative = inhibition",[1],inactive: -3.86%
O=C(OC1CN2CCC1CC2)C12CC3CC(CC(C3)C1)C2 (centres undefined),"activity change, negative = inhibition",[1],inactive: 2.1%
Cc1cc(=O)[nH]c(N[N+](=O)[O-])n1,"activity change, negative = inhibition",[1],inactive: 1.39%
Cc1c2c(nc3ccccc13)SC(C(Cl)Cl)C2 (centres undefined),"activity change, negative = inhibition",[1],inactive: 3.37%
COc1ccc(N/C(=N/P(=O)(N2CCOCC2)N2CCOCC2)N2CCOCC2)cc1,"activity change, negative = inhibition",[1],inactive: 0.652%
Cc1ccc2nc3c(c(C)c2c1)CC(C(Cl)Cl)S3 (centres undefined),"activity change, negative = inhibition",[1],inactive: -5.26%
Cc1ccc(OP(=O)(Nc2ccc([N+](=O)[O-])cn2)Oc2ccc(C)cc2)cc1,"activity change, negative = inhibition",[1],inactive: 1.11%
O=[As](O)(c1ccc(O)cc1)c1ccccc1O,"activity change, negative = inhibition",[1],inactive: -0.423%
C[As](=O)(O)c1cccc(C(=O)O)c1,"activity change, negative = inhibition",[1],inactive: -1.02%
CC(C)NC(=O)NP(=O)(Oc1ccccc1)Oc1ccccc1,"activity change, negative = inhibition",[1],inactive: -0.926%
CCN(CC)C(=S)SC(NC=O)C(Cl)(Cl)Cl (centres undefined),"activity change, negative = inhibition",[1],inactive: -2.25%
O=[N+]([O-])c1cc([N+](=O)[O-])c(-c2ccn[nH]2)s1,"activity change, negative = inhibition",[1],inactive: -10.2%
CC(C)c1ccc(OP(=O)(Nc2ccccn2)Oc2ccccc2F)cc1 (centres undefined),"activity change, negative = inhibition",[1],inactive: -6.58%
ClCCSc1nnc(-c2cccnc2)o1,"activity change, negative = inhibition",[1],inactive: 0.981%
CCCCOc1ccc(C(=O)NCC2(N3CCCCC3)CCCCC2)cc1OC,"activity change, negative = inhibition",[1],inactive: -0.11%
Cc1cc(SC(NC(=O)c2ccccc2)C(Cl)(Cl)Cl)nc(C(C)C)n1 (centres undefined),"activity change, negative = inhibition",[1],inactive: -2.03%
CCOC(=O)Nc1ccc([As](=O)(O)O)c(O)c1,"activity change, negative = inhibition",[1],inactive: 0.0886%
O=[N+]([O-])c1ccc(Nc2ccc(Oc3ccc([N+](=O)[O-])cc3[N+](=O)[O-])cc2)c([N+](=O)[O-])c1,"activity change, negative = inhibition",[1],inactive: -4.69%
Cc1cc(SC(NC=O)C(Cl)(Cl)Cl)ncn1 (centres undefined),"activity change, negative = inhibition",[1],inactive: 0.026%
O=P(Nc1ccccn1)(c1cccc2ccccc12)c1cccc2ccccc12,"activity change, negative = inhibition",[1],inactive: -4.35%
CCOC(=O)Nc1cccc([As](=O)(O)O)c1,"activity change, negative = inhibition",[1],inactive: -1.31%
O=C(COc1ccccc1)OC1CN2CCC1CC2 (centres undefined),"activity change, negative = inhibition",[1],inactive: -0.913%
O=C(Nc1ccncc1[N+](=O)[O-])c1ccc([N+](=O)[O-])cc1[N+](=O)[O-],"activity change, negative = inhibition",[1],inactive: -2.44%
COP1(=S)c2c(C)nn(CCC#N)c2N=C(c2ccc(F)cc2)N1C (centres undefined),"activity change, negative = inhibition",[1],inactive: -11.4%
CCC(C)N(CC(C)C)C(=S)SC(NC(C)=O)C(Cl)(Cl)Cl (centres undefined),"activity change, negative = inhibition",[1],inactive: -8.3%
CCOC(=O)c1ccc(NC(=O)C(C)(CCl)SC)cc1 (centres undefined),"activity change, negative = inhibition",[1],inactive: -0.212%
O=C(OC1CN2CCC1CC2)c1cccc([N+](=O)[O-])c1 (centres undefined),"activity change, negative = inhibition",[1],inactive: -1.26%
